# Laboratory results published in patent publication US9821070B2 (OPKO Biologics Ltd., priority 2012, dated 2017).
# By UniProt entry, the sequences of proteins in these tests, tags left out. Residues count along the entry.
# UniProt P43220, 24-463: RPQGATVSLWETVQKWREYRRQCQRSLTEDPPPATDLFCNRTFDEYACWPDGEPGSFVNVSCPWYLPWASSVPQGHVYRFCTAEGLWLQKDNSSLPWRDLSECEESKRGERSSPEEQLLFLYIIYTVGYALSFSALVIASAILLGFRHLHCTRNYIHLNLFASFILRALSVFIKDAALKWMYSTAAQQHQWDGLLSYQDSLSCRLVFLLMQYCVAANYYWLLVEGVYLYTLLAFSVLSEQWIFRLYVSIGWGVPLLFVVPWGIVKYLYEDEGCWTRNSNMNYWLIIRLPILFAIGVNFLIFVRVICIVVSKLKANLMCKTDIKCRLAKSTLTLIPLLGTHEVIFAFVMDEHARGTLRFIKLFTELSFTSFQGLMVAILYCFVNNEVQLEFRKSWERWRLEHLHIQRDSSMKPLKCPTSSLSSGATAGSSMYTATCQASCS
# Experiments:
# [1] = Plasma concentrations and pharmacokinetics of MOD-6031 and its hydrolyzed products by LC-MS/MS; format: in vivo, ob/ob mice
# GLP-1 receptor = GLP-1 receptor (Homo sapiens, UniProt P43220); conditions: cAMP Hunter CHO-K1 GLP1R cells
# [2] = dose 1000 nmol/kg MOD-6031 (PEG-FMS 1515 nmol/kg)
# [3] = dose 3000 nmol/kg MOD-6031 (PEG-FMS 4545 nmol/kg)
# [4] = dose 6000 nmol/kg MOD-6031 (PEG-FMS 9090 nmol/kg)
# [5] = single SC injection of MOD-6031 3000 nmol/kg, 105 mg/kg (PEG-FMS 4545 nmol/kg)
# [6] = single SC injection of MOD-6031 6000 nmol/kg, 210 mg/kg (PEG-FMS 9090 nmol/kg)
substance,measurement,setting,value
Oxyntomodulin [OXM],Increased by (Day 33 / Day 2),[1]; MOD-6031 1000 nmol/kg (PEG-FMS 1515),1.29
same,Increased by (Day 33 / Day 2),[1]; MOD-6031 3000 nmol/kg (PEG-FMS 4545),1.00
same,Increased by (Day 33 / Day 2),[1]; MOD-6031 6000 nmol/kg (PEG-FMS 9090),0.97
same,accumulation over the study (Day 33 vs day 2),[1]; MOD-6031 twice a week,not accumulated
same,T1/2,"[1]; Table 8, dose 6000 nmol/kg MOD-6031 (PEG-FMS 9090 nmol/kg)",11.8 h
same,AUC0-t/D (molar basis),[1]; [2],0.716 (hr*nmol/mL)/(μmol/kg)
same,Cmax/D (molar basis),[1]; [2],0.0357 (nmol/mL)/(μmol/kg)
same,AUC0-t/D (molar basis),[1]; [3],0.697 (hr*nmol/mL)/(μmol/kg)
same,Cmax/D (molar basis),[1]; [3],0.0273 (nmol/mL)/(μmol/kg)
same,AUC0-t/D (molar basis),[1]; [4],0.692 (hr*nmol/mL)/(μmol/kg)
same,Cmax/D (molar basis),[1]; [4],0.0280 (nmol/mL)/(μmol/kg)
same,Cmax/D,"[1]; single SC injection of MOD-6031 1000 nmol/kg, 34.9 mg/kg (PEG-FMS 1515 nmol/kg)",0.0357 (μg/mL)/(mg/kg)
same,AUC0-∞/D,[1]; [5],0.705 (hr*μg/mL)/(mg/kg)
same,Cmax/D,[1]; [5],0.0274 (μg/mL)/(mg/kg)
same,AUC0-∞/D,[1]; [6],0.694 (hr*μg/mL)/(mg/kg)
same,Cmax/D,[1]; [6],0.0280 (μg/mL)/(mg/kg)
same,EC50,GLP-1 receptor,1.38 ± 0.68 nM
